Measurements published in patent US5212176A, “R(+)-terazosin” (Abbott Laboratories, priority 1990, dated 1993).
“And” between values parts separate entries of the source, which are not always exact repeats. Identical values can stand only once. Like-named read-outs stand apart in the source and are kept apart here.

By UniProt entry, the sequences of proteins in these tests, tags left out.
UniProt P22909, whole entry: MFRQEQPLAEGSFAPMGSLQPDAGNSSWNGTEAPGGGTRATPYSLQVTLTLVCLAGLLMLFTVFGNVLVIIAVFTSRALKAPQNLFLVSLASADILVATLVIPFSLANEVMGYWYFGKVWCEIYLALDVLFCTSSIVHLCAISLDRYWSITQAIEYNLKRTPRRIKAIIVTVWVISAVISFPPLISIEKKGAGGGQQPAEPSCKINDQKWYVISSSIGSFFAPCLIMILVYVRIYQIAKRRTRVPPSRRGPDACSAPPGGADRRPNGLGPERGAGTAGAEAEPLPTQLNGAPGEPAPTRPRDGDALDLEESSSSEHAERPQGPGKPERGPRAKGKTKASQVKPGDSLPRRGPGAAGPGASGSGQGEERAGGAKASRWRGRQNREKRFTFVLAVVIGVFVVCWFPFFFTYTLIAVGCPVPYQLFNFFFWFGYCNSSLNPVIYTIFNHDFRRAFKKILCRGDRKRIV

Target: T1, α2 adrenoceptor (Rattus norvegicus, UniProt P22909)
T1 construct: Vas deferens tissue from male Wistar rats; from tissue; host or cells: isolated vas deferens of male Wistar rats
Assay: α2-mediated norepinephrine release / clonidine antagonism in the stimulated rat vas deferens model
Design: species or system male Wistar rats
Settings: duplicate measurements, read-out: pA2 (converted)
Method: The effect upon α2 -stimulated norepinephrine release of R(+)-terazosin and the S(-)-enantiomer and racemic compound were evaluated in the stimulated rat vas deferens model. Vas deferens tissue from male Wistar rats was cleaned of extraneous tissue and mounted between platinum stimulating electrodes and suspended in a tissue bath. The tissues were stimulated transmurally until the preparation stabilized, generally after about 60-80 minutes. After the twitch response became constant, a stimulus was applied at a frequency of 0.1 Hz for the duration of the dose-responsestudy.
Clonidine was used as a control for inhibiting the twitch response, with 10 minute contact times at increasing doses until the stimulated response was attenuated to zero. The stimulus was then reduced to once every five minutes and the tissue washed until the twitch response was restored. After this, the 0.1 Hz signal was again applied and clonidine was administered together with test compound. All responses were calculated as percent reduction in the twitch response.
(The pA2 values is the negative logarithm of the equilibrium dissociation constant for the antagonist-receptor complex, calculated from pharmacological functional data, and is a measure of the affinity of the antagonist at the particular receptor.)

Q: Which results are given for `COc1cc2nc(N3CCN(C(=O)[C@@H]4CCCO4)CC3)nc(N)c2cc1OC` [S(-), S(-)-2-[4-[(tetrahydro-2-furanyl)carbonyl]-1-piperazinyl]-6,7-dimethoxy-4-quinazolinamine]?
A: Kb (1.0 μmolar concentration): 1480 nM and 1120 nM; Kb (3 μmolar concentration): 1580 nM and 1020 nM
